From patent US4652586A, “Selective beta-2 adrenergic antagonists for the treatment of glaucoma” (priority 1980, dated 1987)

Legend:
[1] = test system: beta2 adrenergic receptor present in mammalian lung; details: Table II; IHYP binding; from Table I; accurate to ±20%
lung adenylate cyclase = details: Table II; from Table I; accurate to ±20%

Row | SMILES | β2/β1 potency ratio (Kd heart/Kd lung) [1] | β2/β1 potency ratio (Ki heart/Ki lung) (lung adenylate cyclase)
1 | COc1ccc(OC)c(C(O)C(C)NC(C)(C)C)c1 (stereo not shown) [Butoxamine] | 1.98 | 4.88
2 | Cc1ccc(C(O)C(C)NC(C)C)cc1 (stereo not shown) [H35/25, (1(4'-methyl phenyl)-2-isopropylaminopropanol)] | 2.3 | 1.58
